{"sequences": {"note": "Chains of the proteins cited; added tags and fusions are not shown. Lines headed by an entry give the natural chain unless they say otherwise; changes in a name come on top.", "UniProt Q2M2I8": "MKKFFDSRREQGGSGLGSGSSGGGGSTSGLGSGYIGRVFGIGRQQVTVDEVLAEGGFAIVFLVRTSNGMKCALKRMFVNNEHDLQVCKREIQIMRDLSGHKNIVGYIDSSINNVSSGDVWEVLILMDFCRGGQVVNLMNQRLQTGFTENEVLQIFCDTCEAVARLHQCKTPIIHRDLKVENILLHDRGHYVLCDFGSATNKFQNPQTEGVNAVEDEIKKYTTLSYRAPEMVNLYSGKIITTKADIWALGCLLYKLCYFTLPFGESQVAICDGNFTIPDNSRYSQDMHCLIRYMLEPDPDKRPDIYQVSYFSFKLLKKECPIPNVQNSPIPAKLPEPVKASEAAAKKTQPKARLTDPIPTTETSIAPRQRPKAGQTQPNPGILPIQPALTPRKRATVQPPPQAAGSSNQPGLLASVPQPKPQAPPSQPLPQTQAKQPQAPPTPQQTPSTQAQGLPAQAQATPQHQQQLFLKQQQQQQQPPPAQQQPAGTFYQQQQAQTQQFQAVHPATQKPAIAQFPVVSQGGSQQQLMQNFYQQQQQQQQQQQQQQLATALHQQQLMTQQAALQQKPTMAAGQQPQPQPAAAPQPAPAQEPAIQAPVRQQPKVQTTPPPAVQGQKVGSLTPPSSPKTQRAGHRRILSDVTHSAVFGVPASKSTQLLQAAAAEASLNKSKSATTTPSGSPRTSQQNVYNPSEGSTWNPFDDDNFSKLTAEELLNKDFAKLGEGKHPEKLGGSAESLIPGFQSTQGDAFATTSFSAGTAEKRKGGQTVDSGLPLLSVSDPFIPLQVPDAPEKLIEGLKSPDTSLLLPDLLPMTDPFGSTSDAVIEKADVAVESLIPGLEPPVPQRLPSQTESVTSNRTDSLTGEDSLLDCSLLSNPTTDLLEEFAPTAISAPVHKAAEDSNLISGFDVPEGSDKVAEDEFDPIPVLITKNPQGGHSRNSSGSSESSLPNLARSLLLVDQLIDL", "UniProt Q9NSY1, whole entry": "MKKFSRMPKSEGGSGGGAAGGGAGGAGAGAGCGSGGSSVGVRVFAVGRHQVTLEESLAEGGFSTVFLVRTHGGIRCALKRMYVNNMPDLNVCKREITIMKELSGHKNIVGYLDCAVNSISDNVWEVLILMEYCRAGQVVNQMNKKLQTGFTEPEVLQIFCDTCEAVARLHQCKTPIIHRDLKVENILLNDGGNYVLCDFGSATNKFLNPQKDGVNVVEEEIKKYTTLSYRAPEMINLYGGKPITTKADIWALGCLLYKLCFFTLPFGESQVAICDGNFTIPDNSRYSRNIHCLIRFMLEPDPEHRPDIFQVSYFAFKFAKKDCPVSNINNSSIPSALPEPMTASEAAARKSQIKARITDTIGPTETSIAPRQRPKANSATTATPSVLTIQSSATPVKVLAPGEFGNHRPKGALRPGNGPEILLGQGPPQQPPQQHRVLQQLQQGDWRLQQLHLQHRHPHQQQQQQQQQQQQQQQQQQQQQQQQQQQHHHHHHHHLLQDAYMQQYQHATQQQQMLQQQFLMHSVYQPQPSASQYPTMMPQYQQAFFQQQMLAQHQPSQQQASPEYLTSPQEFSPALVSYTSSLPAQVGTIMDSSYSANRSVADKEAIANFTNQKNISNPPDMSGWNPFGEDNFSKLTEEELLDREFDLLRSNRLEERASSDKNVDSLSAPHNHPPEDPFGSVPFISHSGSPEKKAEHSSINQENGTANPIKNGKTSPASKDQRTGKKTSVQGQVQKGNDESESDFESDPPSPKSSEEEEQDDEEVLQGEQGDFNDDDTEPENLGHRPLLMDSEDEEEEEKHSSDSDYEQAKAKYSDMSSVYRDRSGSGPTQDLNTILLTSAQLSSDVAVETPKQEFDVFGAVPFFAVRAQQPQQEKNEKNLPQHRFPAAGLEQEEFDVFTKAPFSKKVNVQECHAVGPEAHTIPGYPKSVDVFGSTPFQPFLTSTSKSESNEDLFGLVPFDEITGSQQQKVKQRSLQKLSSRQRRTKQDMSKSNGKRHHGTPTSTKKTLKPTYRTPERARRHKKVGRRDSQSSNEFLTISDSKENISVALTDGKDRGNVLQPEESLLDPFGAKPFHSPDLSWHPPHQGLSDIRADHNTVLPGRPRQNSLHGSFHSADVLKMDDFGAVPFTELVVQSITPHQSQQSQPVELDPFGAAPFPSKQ", "UniProt O60674": "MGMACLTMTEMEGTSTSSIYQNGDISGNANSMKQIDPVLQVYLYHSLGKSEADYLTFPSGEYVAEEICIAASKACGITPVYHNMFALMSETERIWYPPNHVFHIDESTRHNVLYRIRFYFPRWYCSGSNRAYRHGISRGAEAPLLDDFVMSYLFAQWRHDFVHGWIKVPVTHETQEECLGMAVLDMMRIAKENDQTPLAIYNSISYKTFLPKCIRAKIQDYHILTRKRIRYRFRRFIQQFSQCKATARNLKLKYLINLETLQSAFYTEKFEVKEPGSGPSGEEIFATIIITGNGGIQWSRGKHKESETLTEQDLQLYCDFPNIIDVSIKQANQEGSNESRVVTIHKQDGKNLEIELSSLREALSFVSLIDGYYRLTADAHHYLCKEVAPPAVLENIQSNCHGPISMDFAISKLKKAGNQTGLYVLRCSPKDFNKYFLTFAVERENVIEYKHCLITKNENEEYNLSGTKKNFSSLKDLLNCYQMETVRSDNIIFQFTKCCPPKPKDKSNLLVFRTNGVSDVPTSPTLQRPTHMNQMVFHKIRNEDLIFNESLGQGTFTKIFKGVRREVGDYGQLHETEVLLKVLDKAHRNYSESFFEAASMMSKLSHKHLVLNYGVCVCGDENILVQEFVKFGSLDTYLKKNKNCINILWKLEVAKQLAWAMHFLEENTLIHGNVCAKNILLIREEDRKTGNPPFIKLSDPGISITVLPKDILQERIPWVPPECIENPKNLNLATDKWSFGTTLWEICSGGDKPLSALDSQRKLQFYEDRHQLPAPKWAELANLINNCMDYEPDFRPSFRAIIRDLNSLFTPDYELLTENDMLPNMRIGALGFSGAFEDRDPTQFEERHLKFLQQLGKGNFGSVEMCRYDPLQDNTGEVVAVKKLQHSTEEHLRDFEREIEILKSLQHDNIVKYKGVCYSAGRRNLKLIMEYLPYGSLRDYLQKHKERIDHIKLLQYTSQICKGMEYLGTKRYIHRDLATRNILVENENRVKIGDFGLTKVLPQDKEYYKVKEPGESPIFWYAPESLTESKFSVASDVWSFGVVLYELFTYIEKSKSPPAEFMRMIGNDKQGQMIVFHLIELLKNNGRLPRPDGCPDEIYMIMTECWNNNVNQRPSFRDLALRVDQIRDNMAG", "UniProt Q99755": "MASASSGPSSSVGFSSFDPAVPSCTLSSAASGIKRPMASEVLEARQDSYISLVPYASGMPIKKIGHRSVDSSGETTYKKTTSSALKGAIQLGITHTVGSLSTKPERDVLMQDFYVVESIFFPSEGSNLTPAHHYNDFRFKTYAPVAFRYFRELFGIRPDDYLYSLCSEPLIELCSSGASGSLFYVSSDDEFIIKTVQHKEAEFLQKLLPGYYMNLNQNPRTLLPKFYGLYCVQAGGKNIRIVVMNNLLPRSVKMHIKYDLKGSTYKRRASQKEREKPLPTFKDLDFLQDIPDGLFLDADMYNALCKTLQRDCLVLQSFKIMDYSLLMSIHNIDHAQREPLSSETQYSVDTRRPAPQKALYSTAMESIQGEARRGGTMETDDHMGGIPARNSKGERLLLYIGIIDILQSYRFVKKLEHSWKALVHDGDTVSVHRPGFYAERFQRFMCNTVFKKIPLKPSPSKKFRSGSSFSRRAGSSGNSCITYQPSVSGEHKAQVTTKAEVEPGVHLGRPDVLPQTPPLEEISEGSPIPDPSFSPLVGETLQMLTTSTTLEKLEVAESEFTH", "UniProt Q9BVS4": "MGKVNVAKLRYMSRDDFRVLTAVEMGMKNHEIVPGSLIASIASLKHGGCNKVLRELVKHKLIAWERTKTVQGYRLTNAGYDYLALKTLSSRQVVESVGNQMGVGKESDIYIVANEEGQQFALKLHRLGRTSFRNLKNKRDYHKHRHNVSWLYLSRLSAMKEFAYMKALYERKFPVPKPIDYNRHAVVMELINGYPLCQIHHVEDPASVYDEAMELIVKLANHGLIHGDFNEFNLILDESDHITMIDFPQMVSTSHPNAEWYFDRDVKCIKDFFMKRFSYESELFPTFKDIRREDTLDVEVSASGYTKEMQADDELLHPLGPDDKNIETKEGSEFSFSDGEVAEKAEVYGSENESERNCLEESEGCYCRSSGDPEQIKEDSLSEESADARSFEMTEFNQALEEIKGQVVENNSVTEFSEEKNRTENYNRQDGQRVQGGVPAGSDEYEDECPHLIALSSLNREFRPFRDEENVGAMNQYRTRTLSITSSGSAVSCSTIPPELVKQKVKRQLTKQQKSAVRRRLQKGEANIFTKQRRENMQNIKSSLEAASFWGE", "UniProt P35991": "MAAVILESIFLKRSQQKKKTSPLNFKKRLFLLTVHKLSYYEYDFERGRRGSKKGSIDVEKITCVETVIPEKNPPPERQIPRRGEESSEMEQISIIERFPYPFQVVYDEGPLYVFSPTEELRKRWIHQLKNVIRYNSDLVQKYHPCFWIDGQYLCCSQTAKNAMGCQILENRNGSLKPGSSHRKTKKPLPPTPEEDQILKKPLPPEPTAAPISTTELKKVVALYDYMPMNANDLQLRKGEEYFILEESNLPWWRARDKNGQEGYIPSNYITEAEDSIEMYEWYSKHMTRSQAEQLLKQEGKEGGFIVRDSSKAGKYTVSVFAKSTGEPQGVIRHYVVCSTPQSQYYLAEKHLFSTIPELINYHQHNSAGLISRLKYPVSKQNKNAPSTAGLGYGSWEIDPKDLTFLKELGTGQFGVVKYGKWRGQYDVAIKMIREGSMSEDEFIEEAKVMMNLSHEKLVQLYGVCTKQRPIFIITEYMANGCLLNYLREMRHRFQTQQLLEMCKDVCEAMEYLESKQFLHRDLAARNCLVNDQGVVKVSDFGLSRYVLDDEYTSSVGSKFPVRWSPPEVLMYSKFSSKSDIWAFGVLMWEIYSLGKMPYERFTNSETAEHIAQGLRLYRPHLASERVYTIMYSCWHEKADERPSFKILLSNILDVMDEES"}, "source": "ChEMBL document CHEMBL4699451", "about": "“Discovery of BIIB068: A Selective, Potent, Reversible Bruton's Tyrosine Kinase Inhibitor as an Orally Efficacious Agent for Autoimmune Diseases” (J Med Chem, 2020)", "key": {"[1]": {"target": "T1, Mitogen-activated protein kinase kinase kinase 19 (Homo sapiens, UniProt Q56UN5)", "T1 sequence (Q56UN5 whole entry)": "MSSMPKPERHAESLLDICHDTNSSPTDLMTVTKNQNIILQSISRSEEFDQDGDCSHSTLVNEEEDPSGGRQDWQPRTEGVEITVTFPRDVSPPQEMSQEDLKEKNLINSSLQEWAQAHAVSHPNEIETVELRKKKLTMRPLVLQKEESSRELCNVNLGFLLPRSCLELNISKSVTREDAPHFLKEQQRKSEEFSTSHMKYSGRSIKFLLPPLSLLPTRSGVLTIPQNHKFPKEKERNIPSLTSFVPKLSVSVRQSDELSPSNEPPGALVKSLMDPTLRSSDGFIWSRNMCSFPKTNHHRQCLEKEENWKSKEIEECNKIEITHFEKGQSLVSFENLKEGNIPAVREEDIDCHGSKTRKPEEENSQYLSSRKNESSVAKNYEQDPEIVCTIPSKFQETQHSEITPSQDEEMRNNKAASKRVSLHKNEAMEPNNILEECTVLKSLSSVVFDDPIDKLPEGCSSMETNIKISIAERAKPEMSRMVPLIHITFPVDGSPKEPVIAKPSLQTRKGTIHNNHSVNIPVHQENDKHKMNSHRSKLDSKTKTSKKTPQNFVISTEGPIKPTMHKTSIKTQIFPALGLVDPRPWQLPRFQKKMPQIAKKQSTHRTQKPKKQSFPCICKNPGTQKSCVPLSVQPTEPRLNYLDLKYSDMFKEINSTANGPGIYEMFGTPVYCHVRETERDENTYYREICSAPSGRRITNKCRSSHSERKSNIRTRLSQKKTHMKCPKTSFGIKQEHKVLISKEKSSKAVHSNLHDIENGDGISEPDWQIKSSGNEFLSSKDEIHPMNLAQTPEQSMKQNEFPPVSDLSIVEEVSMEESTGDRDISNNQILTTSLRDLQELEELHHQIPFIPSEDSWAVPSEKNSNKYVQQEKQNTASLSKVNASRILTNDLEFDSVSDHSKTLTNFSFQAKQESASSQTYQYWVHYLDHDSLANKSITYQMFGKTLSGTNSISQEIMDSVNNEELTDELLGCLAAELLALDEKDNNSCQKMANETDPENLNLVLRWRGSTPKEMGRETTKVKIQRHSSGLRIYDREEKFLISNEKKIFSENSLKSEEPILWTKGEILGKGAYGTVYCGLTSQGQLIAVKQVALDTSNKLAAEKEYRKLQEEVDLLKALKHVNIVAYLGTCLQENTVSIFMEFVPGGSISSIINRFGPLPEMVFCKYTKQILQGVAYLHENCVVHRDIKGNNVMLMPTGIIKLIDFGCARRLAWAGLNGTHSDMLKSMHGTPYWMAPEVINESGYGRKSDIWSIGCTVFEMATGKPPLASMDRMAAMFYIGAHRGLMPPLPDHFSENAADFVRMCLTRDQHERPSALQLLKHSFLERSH", "assay": "Binding affinity to wild-type human partial length YSK4 (T1019 to H1328 residues) expressed in mammalian expression system by Kinomescan method"}, "[2]": {"target": "AP2-associated protein kinase 1 (Homo sapiens, UniProt Q2M2I8)", "assay": "Binding affinity to human wild-type AAK1 (G25 to L333 residues) expressed in bacterial expression system by Kinomescan method"}, "[3]": {"target": "BMP-2-inducible protein kinase (Homo sapiens, UniProt Q9NSY1)", "assay": "Binding affinity to human wild-type BMP2K (S34 to N329 residues) expressed in bacterial expression system by Kinomescan method"}, "[4]": {"target": "T2, Cyclin-dependent kinase-like 2 (Homo sapiens, UniProt Q92772)", "T2 sequence (Q92772 whole entry)": "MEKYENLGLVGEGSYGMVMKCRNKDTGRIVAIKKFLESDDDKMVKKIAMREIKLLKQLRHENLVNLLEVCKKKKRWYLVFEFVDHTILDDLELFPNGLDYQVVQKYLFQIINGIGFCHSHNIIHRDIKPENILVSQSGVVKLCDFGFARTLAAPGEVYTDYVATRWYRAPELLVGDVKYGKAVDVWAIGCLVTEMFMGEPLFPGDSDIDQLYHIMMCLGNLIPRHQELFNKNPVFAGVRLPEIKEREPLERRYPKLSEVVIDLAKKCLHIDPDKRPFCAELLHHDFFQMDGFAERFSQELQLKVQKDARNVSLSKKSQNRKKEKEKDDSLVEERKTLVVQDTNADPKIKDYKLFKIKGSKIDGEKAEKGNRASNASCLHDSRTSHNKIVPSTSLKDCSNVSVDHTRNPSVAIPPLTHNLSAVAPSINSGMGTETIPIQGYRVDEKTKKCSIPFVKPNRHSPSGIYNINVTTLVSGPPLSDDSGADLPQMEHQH", "assay": "Binding affinity to wild-type human partial length CDKL2 (M1 to D327 residues) expressed in bacterial expression system by Kinomescan method"}, "[5]": {"target": "Tyrosine-protein kinase JAK2 (Homo sapiens, UniProt O60674)", "assay": "Binding affinity to wild-type human partial length JAK2 JH1 catalytic domain (A829 to G1132 residues) expressed in mammalian expression system by Kinomescan method"}, "[6]": {"target": "Phosphatidylinositol 4-phosphate 5-kinase type-1 alpha (Homo sapiens, UniProt Q99755)", "assay": "Binding affinity to wild-type human full length PIP5K1A (M1 to H562 residues) expressed in bacterial expression system by Kinomescan method"}, "[7]": {"target": "T3, Serine/threonine-protein kinase RIO1 (Homo sapiens, UniProt Q9BRS2)", "T3 sequence (Q9BRS2 whole entry)": "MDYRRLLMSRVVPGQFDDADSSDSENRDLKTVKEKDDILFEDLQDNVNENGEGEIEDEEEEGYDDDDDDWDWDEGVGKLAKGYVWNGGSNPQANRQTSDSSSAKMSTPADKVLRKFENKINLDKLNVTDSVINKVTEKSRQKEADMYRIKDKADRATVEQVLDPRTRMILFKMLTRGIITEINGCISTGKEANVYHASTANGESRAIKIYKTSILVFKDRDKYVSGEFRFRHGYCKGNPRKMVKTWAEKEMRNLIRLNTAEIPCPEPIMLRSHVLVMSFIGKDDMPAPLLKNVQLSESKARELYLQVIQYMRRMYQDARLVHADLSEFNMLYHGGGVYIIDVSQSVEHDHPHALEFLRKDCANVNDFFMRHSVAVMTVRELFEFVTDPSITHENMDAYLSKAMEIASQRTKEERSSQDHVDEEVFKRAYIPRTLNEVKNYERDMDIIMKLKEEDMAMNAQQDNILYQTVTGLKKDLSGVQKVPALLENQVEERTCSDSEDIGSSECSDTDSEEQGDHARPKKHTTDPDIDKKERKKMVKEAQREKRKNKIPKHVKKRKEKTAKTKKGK", "assay": "Binding affinity to wild-type human full length RIOK1 (M1 to K568 residues) expressed in bacterial expression system by Kinomescan method"}, "[8]": {"target": "Serine/threonine-protein kinase RIO2 (Homo sapiens, UniProt Q9BVS4)", "assay": "Binding affinity to wild-type human partial length RIOK2 (M1 to D313 residues) expressed in mammalian expression system by Kinomescan method"}, "[9]": {"target": "Tyrosine-protein kinase BTK (Mus musculus) (UniProt P35991)", "details": "DBA1, dose 30.0 mg/kg, time 10.0 day"}}, "note": "pKd: −log10 of the molar value.", "data": [{"smiles": "Cc1cc(-c2ccnc(Nc3cnn(C)c3)n2)ccc1CNC(=O)N1CC(OC(C)C)C1", "values": [{"measurement": "pKd", "setting": "[1]", "value": 6.89}, {"measurement": "pKd", "setting": "[2]", "value": 6.37}, {"measurement": "pKd", "setting": "[3]", "value": 5.96}, {"measurement": "pKd", "setting": "[4]", "value": 6.38}, {"measurement": "pKd", "setting": "[5]", "value": 6.34}, {"measurement": "pKd", "setting": "[6]", "value": "< 5.00"}, {"measurement": "pKd", "setting": "[7]", "value": 5.92}, {"measurement": "pKd", "setting": "[8]", "value": 5.62}, {"measurement": "inhibition", "setting": "[9]", "value": 90, "unit": "%"}]}]}
